# Patent US20210128736A1, “STEREOCOMPLEX OF OLIGOLACTIC ACID CONJUGATES IN MICELLES FOR IMPROVED PHYSICAL STABILITY AND ENHANCED ANTITUMOR EFFICACY” (Wisconsin Alumni Research Foundation, priority 2018, published 2021)
# Settings: for Stability: loaded PEG-b-PLA micelles, 1.0 mg prodrug and 10.0 mg PEG4000-b-PLA2200, dispersed in MilliQ water at 25° C.; for physical stability: time to drug precipitation: loaded within PEG-b-PLA micelles
Substance,Stability,physical stability: time to drug precipitation
oligo(L-lactic acid)-gemcitabine [o(LLA)6-GEM],<24 h,< 24 h
oligo(L-lactic acid)-gemcitabine [o(LLA)10-GEM],<1 h,< 1 h
